Measurements taken from patent publication US8133695B2, “Fluorescence polarization hERG assay” (priority 2008, dated 2012).
Like-named read-outs stand apart in the source and are kept apart here.

By UniProt entry, the sequences of proteins in these tests, tags left out. Where a name states a change or a piece, a line headed by the entry shows the natural chain unless it says otherwise.
UniProt Q12809: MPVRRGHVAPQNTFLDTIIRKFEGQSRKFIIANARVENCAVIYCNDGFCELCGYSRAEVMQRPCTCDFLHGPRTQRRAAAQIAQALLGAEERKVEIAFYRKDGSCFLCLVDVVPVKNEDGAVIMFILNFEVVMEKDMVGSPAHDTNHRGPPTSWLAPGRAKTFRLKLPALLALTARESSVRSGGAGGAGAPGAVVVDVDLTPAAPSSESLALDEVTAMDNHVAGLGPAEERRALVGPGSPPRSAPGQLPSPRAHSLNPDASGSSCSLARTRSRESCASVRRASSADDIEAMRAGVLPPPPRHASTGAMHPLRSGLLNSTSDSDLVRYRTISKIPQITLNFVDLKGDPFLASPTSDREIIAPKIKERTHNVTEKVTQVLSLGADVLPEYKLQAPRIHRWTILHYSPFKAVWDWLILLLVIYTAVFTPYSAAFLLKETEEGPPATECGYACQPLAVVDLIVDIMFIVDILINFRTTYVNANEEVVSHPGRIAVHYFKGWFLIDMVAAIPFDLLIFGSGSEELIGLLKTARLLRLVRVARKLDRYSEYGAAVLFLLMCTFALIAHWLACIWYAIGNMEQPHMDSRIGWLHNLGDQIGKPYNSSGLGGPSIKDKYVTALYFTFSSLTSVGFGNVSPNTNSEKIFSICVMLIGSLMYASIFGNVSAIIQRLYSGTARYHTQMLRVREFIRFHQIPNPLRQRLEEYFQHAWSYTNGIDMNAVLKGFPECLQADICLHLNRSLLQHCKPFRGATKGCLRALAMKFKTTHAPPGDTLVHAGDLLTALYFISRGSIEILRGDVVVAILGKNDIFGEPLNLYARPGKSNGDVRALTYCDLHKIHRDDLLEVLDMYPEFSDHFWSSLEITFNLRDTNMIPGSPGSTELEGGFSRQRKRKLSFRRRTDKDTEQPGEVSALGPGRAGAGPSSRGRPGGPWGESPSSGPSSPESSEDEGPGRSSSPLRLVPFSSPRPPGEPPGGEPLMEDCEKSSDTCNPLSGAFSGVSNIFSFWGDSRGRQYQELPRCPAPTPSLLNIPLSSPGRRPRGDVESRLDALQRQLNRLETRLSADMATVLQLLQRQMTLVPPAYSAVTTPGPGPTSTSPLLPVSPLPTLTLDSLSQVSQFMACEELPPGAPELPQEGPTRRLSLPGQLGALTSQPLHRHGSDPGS

Tests used:
[1] = target: T1, hERG K+ channel (Homo sapiens, UniProt Q12809); details: literature radioligand displacement values; cited from earlier work
[2] = target: T1, hERG K+ channel; experiment: biochemical

Q: With `CC(C)COCC(CN(Cc1ccccc1)c1ccccc1)N1CCCC1` (centres unmarked) [Bepridil] as the molecule, how does the IC50 [1] read?
A: 0.17 to 0.45 µM

Q: And the IC50 [2]?
A: 0.279 µM
